Measurements reported in PubChem BioAssay AID2288 (National Center for Advancing Translational Sciences (NCATS), 2010).
The list shows a part of the results, in another mix than the full data. Calls of active or inactive are those of the source. Calls come from the whole dose curve; as a rule, active = well fitted curve in the direction sought with a large enough effect; inconclusive = small, poorly fitted or top-dose-only effect, or another doubt; inactive = no such curve, though single readings can be large or run the other way.

Experiment: qHTS Assay for Modulators of miRNAs and/orActivators of miR-21;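 note: % of control where 0% means no effect; miR-21 action dims this reporter so a rising signal means less miR-21 action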
Conditions: HeLa miR-21 FLuc reporter, luciferase, 48 h; at 38.3 µM (top of the series)
With `COc1ccccc1OP(C)(=O)Nc1c(C)cccc1C` (configuration not stated) the activity change, positive = activation was inactive: -2.53%.
With `CN1CCCCC1COC(=O)C1(O)c2ccccc2CCc2ccccc21` (configuration not stated) the activity change, positive = activation was inactive: -5.98%.
For `O=P1(Nc2ncccn2)COc2ccccc2OC1`, the activity change, positive = activation was inactive: -0.662%.
For `O=C(/C=C/c1ccccc1)OC1CN2CCC1CC2` (configuration not stated), the activity change, positive = activation was inactive: -5.09%.
For `CN(C)C1(CNC(=O)c2ccc(S(C)(=O)=O)cc2)CCCCC1`, the activity change, positive = activation was inactive: -2.94%.
For `O=[N+]([O-])c1cc([N+](=O)[O-])c(Nc2nnnn2CCO)c([N+](=O)[O-])c1`, the activity change, positive = activation was inactive: -6.67%.
For `COc1cc(C2NCCC3(OCCO3)C2(C)C)cc(OC)c1OC.O=[N+]([O-])c1cc([N+](=O)[O-])c(O)c([N+](=O)[O-])c1` (configuration not stated), the activity change, positive = activation was inactive: -2.93%.
For `CC1CCC(C(C)C)C(OP(=O)(Nc2ccccn2)c2ccccc2)C1` (configuration not stated), the activity change, positive = activation was inactive: 14.9%.
In the case of `Cc1ccc(C(=O)OC2CN3CCC2CC3)cc1` (configuration not stated), the activity change, positive = activation is reported as inactive: -5.5%.
With `Cc1nn(-c2ccccc2)c2c1P(=O)(N1CCOCC1)N(C)C(c1ccccc1)=N2` (configuration not stated) the activity change, positive = activation was inactive: -4.19%.
In the case of `CC1=NCCc2c1[nH]c1ccccc21.O=[N+]([O-])c1cc([N+](=O)[O-])c(O)c([N+](=O)[O-])c1`, the activity change, positive = activation is reported as inactive: -8.7%.
For `O=[N+]([O-])c1ccc2c(c1)nnn2O`, the activity change, positive = activation was inactive: 2.04%.
For `CCOP1(=S)c2c(C)nn(CCC#N)c2N=C(c2ccc(F)cc2)N1C` (configuration not stated), the activity change, positive = activation was inactive: -14.4%.
For `CN(C(=O)Cc1ccccc1)[C@@H]1CC[C@]2(CCCO2)C[C@H]1N1CCCC1`, the activity change, positive = activation was inactive: -0.0179%.
With `NC(=O)Nc1ccc([As](=O)(O)O)cc1` the activity change, positive = activation was inactive: -5.46%.
In the case of `Nc1ccccc1[As](=O)(O)c1ccccc1`, the activity change, positive = activation is reported as inactive: -0.0727%.
For `O=C(O)COc1ccc([As](=O)(O)O)cc1[N+](=O)[O-]`, the activity change, positive = activation was inactive: 2.68%.
In the case of `CS(=O)(=O)c1cc([N+](=O)[O-])c2no[n+]([O-])c2c1`, the activity change, positive = activation is reported as inactive: 7.56%.
For `O=P(Nc1nccs1)(Oc1ccccc1)Oc1ccccc1`, the activity change, positive = activation was inactive: 1.26%.
For `O=P(Nc1nccs1)(c1ccccc1)c1nc2ccccc2s1` (configuration not stated), the activity change, positive = activation was inactive: 20%.
With `CCOP1(=S)c2c(C)nn(CCC#N)c2N=C(c2ccccc2F)N1C` (configuration not stated) the activity change, positive = activation was inactive: -5.6%.
For `CCOP(=O)(Nc1cccc2ccccc12)OCC`, the activity change, positive = activation was inactive: -6.9%.
With `Cc1ccc(C)c(NP(C)(=O)Oc2ccccc2)c1` (configuration not stated) the activity change, positive = activation was inactive: -1.55%.
With `CCCOP(=S)(Nc1nc(N)cc(=O)[nH]1)OCCC` the activity change, positive = activation was inactive: 2.05%.
For `Cc1ccc(NCCc2c([N+](=O)[O-])cc([N+](=O)[O-])cc2[N+](=O)[O-])cc1`, the activity change, positive = activation was inactive: 0.875%.
With `Nc1cccc2c([As](=O)(O)O)cccc12` the activity change, positive = activation was inactive: 0.179%.
In the case of `Cc1cc(C)cc(OP(C)(=O)Nc2ccccn2)c1` (configuration not stated), the activity change, positive = activation is reported as inactive: 1.1%.
For `CP(=O)(Nc1cccc(Br)c1)Oc1ccccc1` (configuration not stated), the activity change, positive = activation was inactive: -2.49%.
With `CCOC(=O)c1ccc(NP(C)(=O)Oc2cc(C)cc(C)c2)cc1` (configuration not stated) the activity change, positive = activation was inactive: 6.14%.
For `Cc1cc(C)cc(OP(C)(=O)Nc2ccc(C)cc2C)c1` (configuration not stated), the activity change, positive = activation was inactive: -2.64%.
With `Cc1cccc(OCC(=O)OC2CN3CCC2CC3)c1` (configuration not stated) the activity change, positive = activation was inactive: -4.16%.
For `O=[As](O)(c1cccc(O)c1)c1cccc(O)c1`, the activity change, positive = activation was inactive: 4.3%.
For `COc1ccccc1OP(C)(=O)Nc1cccc(Br)c1` (configuration not stated), the activity change, positive = activation was inactive: -1.33%.
In the case of `CS(=O)(=O)c1ccc(Cl)c(NC(=O)COC(=O)C(O)(c2ccccc2)c2ccccc2)c1`, the activity change, positive = activation is reported as inactive: 4.65%.
In the case of `O=[As](O)(O)c1cccnc1`, the activity change, positive = activation is reported as inactive: 1.98%.
With `COc1cc(C(=O)NCC2(N3CCOCC3)CCCCC2)cc(Cl)c1OC(C)C` the activity change, positive = activation was inactive: 0.403%.
For `O=C(OC1CN2CCC1CC2)c1ccc(Cl)cc1` (configuration not stated), the activity change, positive = activation was inactive: -6.23%.
With `CC(=O)Nc1ccc(Oc2c([N+](=O)[O-])cc([N+](=O)[O-])cc2[N+](=O)[O-])cc1` the activity change, positive = activation was inactive: -3.16%.
For `CC(=O)Nc1ccc([As](=O)(O)O)c(O)c1`, the activity change, positive = activation was inactive: 0.796%.
With `CC(=O)c1ccc(N2CC2c2ccncc2)cc1` (configuration not stated) the activity change, positive = activation was inactive: -2.3%.
For `C[C@H]1OP(=O)(Oc2ccccc2)C[C@@H]2O[C@@H]21` (some centres not stated), the activity change, positive = activation was inactive: -10.6%.
With `C[C@@H]1C=CCP(=O)(Oc2ccccc2)O1` (some centres not stated) the activity change, positive = activation was inactive: -0.808%.
With `O=C(OCCN1CCN(CCOCc2ccccc2)CC1)C(O)(c1ccccc1)c1ccccc1` the activity change, positive = activation was inactive: -7.81%.
For `CP(=O)(Nc1ccccc1F)Oc1ccccc1` (configuration not stated), the activity change, positive = activation was inactive: -2.35%.
For `CC(C)c1ccc(OP(C)(=O)Nc2ccc(SC(F)(F)F)cc2)cc1` (configuration not stated), the activity change, positive = activation was inactive: 6.95%.
For `CC(C)(C)C(=O)NC(Sc1ccccc1)C(Cl)(Cl)Cl` (configuration not stated), the activity change, positive = activation was inactive: -0.868%.
With `CCOc1ccc(C2=NCC(CBr)S2)cc1` (configuration not stated) the activity change, positive = activation was inactive: -14.7%.
For `O=P1(Nc2nc3ccc(Cl)cc3s2)COc2ccccc2O1` (configuration not stated), the activity change, positive = activation was inactive: -28%.
In the case of `CP(=O)(Nc1ccccc1)Oc1ccc(F)cc1` (configuration not stated), the activity change, positive = activation is reported as inactive: 0.758%.
With `CCCCCOc1ccc(NP(C)(=O)Oc2ccc(Cl)cc2Cl)cc1` (configuration not stated) the activity change, positive = activation was inactive: -5.24%.
In the case of `O=c1c2cc([N+](=O)[O-])ccc2[nH]c2c([N+](=O)[O-])cc([N+](=O)[O-])cc12`, the activity change, positive = activation is reported as inactive: 17.1%.
With `CN(C)C(=O)Oc1noc2ccccc12` the activity change, positive = activation was inactive: -0.857%.
With `Cc1ccccc1OP(=O)(Nc1ccccn1)Oc1ccccc1C` the activity change, positive = activation was inactive: 18.4%.
For `CC(=O)NC(SC(=S)N(CC(C)C)CC(C)C)C(Cl)(Cl)Cl` (configuration not stated), the activity change, positive = activation was inactive: -0.0649%.
For `Cc1ccc(OP(=O)(Nc2ccccn2)Oc2ccc(C)cc2)cc1`, the activity change, positive = activation was inactive: 15.7%.
For `COC(=O)c1cc2c(s1)N=C(c1ccccc1)N(C)P2(=O)N1CCOCC1` (configuration not stated), the activity change, positive = activation was inactive: -1.01%.
With `CCN(CC)CCCOC(=O)C(O)(c1ccccc1)C1CCCCC1` (configuration not stated) the activity change, positive = activation was inactive: 1.54%.
With `CCC(=O)N1C2C3N(C(=O)CC)C1C1N(C(=O)CC)C(C(N1C(=O)CC)N3C(=O)CC)N2C(=O)CC` the activity change, positive = activation was inactive: -1.71%.
For `O=C(OC1CN2CCC1CC2)c1ccccc1` (configuration not stated), the activity change, positive = activation was inactive: -1.01%.
In the case of `CCOC(=O)c1ccc(NP(C)(=O)Oc2ccc(F)cc2)cc1` (configuration not stated), the activity change, positive = activation is reported as inactive: -12.2%.
With `COc1ccc(OP(C)(=O)Nc2ccc(SC(F)(F)F)cc2)cc1` (configuration not stated) the activity change, positive = activation was inactive: 2.98%.
With `CCNC(=S)/N=C(\N)N[N+](=O)[O-]` the activity change, positive = activation was inactive: -1.72%.
